# In article PMC10540216, “Activity Guided Azide-methyllysine Photo-trapping for Substrate Profiling of Lysine Demethylases” (Journal of the American Chemical Society, 2023):
# “Also recorded” adds a separate entry of the source.
# How the values were obtained:
# [1] = system: KDM4A-I71AzF; assay: Photo-crosslinking with TAMRA peptides, in-gel fluorescence; type: binding, human; details: 10 µM peptide, 20 µM protein, 365 nm UV, 30 minutes at 4 °C
# Description: (dissolved in 50:50 0.1% TFA and acetonitrile) were combined on a MALDI plate. Samples were ionized using reflectron positive mode on Bruker Daltonics UltrafleXtreme MALDI TOF with detection carried out from 700-3500 m/z. Bruker Flex Analysis software was used to analyze the […]
# 9. Demethylase activity of AzF mutants on semi-synthetic histones
# A demethylase activity assay was conducted to determine if KDM4A-I71AzF mutant was active towards semi-synthetic histones (H3KC4me3, H3KC9me3, H3KC36me3). The samples included 10 µM histone, 10 µM enzyme, 1 mM 2OG, 100 µM (NH4)2Fe(SO4)2, 2 mM L-ascorbic acid, 50 mM Tris pH 8.0 (degassed), 1 mM TCEP (freshly prepared) and 10% glycerol (v/v). The samples were incubated for 3 h at 37 °C and were then purified through a C-18 Sep-pak column (Waters, cat# WAT054955). The histones were concentrated by speed vacuum and analyzed for […]
# 10. Photo-crosslinking experiment with peptides and in-gel fluorescence For peptide photo-crosslinking experiments, 10 µM TAMRA-labeled H3K9me0 or H3K9me3 […]
# peptide was mixed with 20 µM of wild type KDM4A or AzF variants in a buffer consisting of 2 […]
# mM ascorbic acid, 50 mM tris pH 8.0, 50 μM Fe(NH4)2(SO4)2, 200 µM 2OG. Samples were […]
# 365nm 100% irradiated) for 30 minutes at 4 °C on ice. Negative controls were kept in dark on ice for the full 30 minutes. […]
# [2] = system: KDM4A-I71AzF; assay: CASI: photo-crosslinking with HEK293T cell extracts, StrepTactin enrichment and LC-MS/MS proteomics; type: binding, human; details: sheet "Final results but with 0.01";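 also: lysates from HEK293T cells pretreated with a KDM4 inhibitor to raise proteome methylation, affinity-purified after ±UV, gel-resolved, trypsin-digested, with exclusive unique peptides per protein averaged per condition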
Substance,crosslinking with KDM4A-I71AzF [1],Fold change (+UV/-UV) [2]
"(5/6)-TA M R A-GGARTKQTARKSTGGKAPR [compound 7, TAMRA-labeled peptide carrying H3K9me0]",negligible crosslinking; also recorded: negligible compared to the TAMRA-H3K9me3 peptide,
IF2B1_HUMAN,,0
